Patent US20220054617A1, “SUBUNIT VACCINE CONSTRUCTS FOR FLAVIVIRUSES” (priority 2018, published 2022)

Tests used:
[1] = site of injection and draining lymph node
[2] = equivalent doses; reporter mouse model

covalent conjugate of an imidazoquinoline TLR7/TLR8 dual agonist [5-(3-(aminomethyl)benzyl)-3-pentylquinolin-2-amine] with hyaluronic acid [EY-4-143]
release of the TLR7/8 agonist (depot effect) [1]: low-level, but sustained release | systemic exposure relative to the unconjugated imidazoquinolines [2]: very small
